98 compounds from PubChem BioAssay AID652197 (Broad Institute, 2013) can be followed below.

Amino acid sequences for entries named in this document (tags omitted). A change or cut given only in a name is not applied to a line headed by its entry.
UniProt Q9NZ08: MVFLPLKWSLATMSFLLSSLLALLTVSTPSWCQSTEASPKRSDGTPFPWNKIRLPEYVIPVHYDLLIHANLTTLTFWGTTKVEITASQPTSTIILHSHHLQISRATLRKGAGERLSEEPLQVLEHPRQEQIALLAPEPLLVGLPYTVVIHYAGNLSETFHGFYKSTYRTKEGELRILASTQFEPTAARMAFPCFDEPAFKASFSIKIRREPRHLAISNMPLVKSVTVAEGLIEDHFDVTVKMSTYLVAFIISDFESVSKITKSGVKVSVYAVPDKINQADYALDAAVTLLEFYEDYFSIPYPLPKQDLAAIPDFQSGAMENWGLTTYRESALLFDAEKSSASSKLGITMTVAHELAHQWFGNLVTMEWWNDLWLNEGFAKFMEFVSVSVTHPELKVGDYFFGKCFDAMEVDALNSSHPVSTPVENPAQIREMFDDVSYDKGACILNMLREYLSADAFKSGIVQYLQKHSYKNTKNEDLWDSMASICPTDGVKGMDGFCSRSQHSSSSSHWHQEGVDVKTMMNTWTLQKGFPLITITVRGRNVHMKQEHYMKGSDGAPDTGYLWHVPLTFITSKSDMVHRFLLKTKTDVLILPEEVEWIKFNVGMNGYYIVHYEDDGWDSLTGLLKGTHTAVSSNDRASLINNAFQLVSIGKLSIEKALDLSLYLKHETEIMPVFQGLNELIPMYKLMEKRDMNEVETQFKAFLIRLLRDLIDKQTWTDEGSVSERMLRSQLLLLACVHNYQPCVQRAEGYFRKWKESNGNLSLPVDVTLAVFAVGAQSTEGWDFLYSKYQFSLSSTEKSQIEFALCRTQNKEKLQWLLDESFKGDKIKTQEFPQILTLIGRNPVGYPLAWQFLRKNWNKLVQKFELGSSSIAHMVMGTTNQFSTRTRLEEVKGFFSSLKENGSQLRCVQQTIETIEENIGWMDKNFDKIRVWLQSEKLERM

This is a selection; strong and weak results do not stand in their true shares. Calls of active or inactive are those of the source.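 The calls were made as follows: active = mean replicate inhibition of at least 30%, or all replicates individually reaching that 30% level; inactive = mean below 30% and not every replicate reaching it.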

The experiment concerns the target Endoplasmic reticulum aminopeptidase 1 (Homo sapiens) (UniProt Q9NZ08). Nature of the experiment: inhibition of ERAP1 peptide trimming enzyme – biochemical, single point, plate reader, primary screen (AID 652197).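 Also: 0% = neutral control wells and 100% = L-leucinethiol positive control wells.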 To be noted: recombinant ERAP1, Leu-AMC fluorescence, 60 min; at 10.7 µM; active compounds read high.
By inhibition is commonly meant the relative decrease from the control value, in per cent. For the compound `CCCCOc1ccc(C(=O)NCC2(N3CCCCC3)CCCCC2)cc1OC`, the inhibition is inactive: 2.53%.

For the compound `COP(=O)(OC)N1CC1c1ccccc1` (stereo not drawn), the inhibition was inactive: 1.1%.

Turning to `CC1CCNP(=O)(N(CCCl)CCCl)O1` (stereo not drawn), the inhibition was inactive: -2.75%.

`O=C(O)C(O)c1ccc(N(CCCl)CCCl)cc1` (stereo not drawn): the inhibition was inactive: -2.23%.

`O=[N+]([O-])c1ccc(Nc2ccc(Oc3ccc([N+](=O)[O-])cc3[N+](=O)[O-])cc2)c([N+](=O)[O-])c1`: the inhibition was inactive: -1.01%.

For `Cc1cc(SC(NC=O)C(Cl)(Cl)Cl)ncn1` (stereo not drawn), the inhibition is inactive: 2.58%.

Consider `O=P(Nc1ccccn1)(c1cccc2ccccc12)c1cccc2ccccc12`, for which the inhibition was inactive: -2.51%.

Take `CCOC(=O)Nc1cccc([As](=O)(O)O)c1`: the inhibition is inactive: -1.21%.

For `O=C(Nc1ccncc1[N+](=O)[O-])c1ccc([N+](=O)[O-])cc1[N+](=O)[O-]`, the inhibition was inactive: 2.07%.

For `O=C(O)C(=O)c1ccc(N(CCCl)CCCl)cc1`, the inhibition was inactive: -1.12%.

Turning to `COP1(=S)c2c(C)nn(CCC#N)c2N=C(c2ccc(F)cc2)N1C` (stereo not drawn), the inhibition is inactive: -2.56%.

As to `COC(=O)C1(C)COP(=O)(N2CCCC2)OC1` (stereo not drawn), the inhibition was inactive: 0.037%.

In the case of `CCOC(=O)c1ccc(NC(=O)C(C)(CCl)SC)cc1` (stereo not drawn), the inhibition is inactive: 2.84%.

Consider `O=C(OC1CN2CCC1CC2)c1cccc([N+](=O)[O-])c1` (stereo not drawn), for which the inhibition is inactive: 0.754%.

Consider `COc1ccc2nc(NP(=O)(c3ccccc3)c3ccccc3)sc2c1`, for which the inhibition is inactive: 1.29%.

Take `COc1cc(I)ccc1[As](=O)(O)O`: the inhibition is inactive: 1.33%.

Turning to `O=P1(N(CCCl)CCCl)OCCCN1CCCl` (stereo not drawn), the inhibition is inactive: 0.403%.

In the case of `O=P1(N(CCCl)CCCl)Nc2ccccc2N1`, the inhibition was inactive: 1.75%.

On to `COc1ccc(CN2/C(=N\P(=O)(Oc3ccccc3)Oc3ccccc3)Cc3ccccc3C2C2CC2)cc1` (stereo not drawn), for which the inhibition is inactive: -0.402%.

For `Cc1cc(=O)[nH]c(N[N+](=O)[O-])n1`, the inhibition was inactive: -5.29%.

With `Cc1c2c(nc3ccccc13)SC(C(Cl)Cl)C2` (stereo not drawn), the inhibition was inactive: -0.642%.

Regarding `COc1ccc(N/C(=N/P(=O)(N2CCOCC2)N2CCOCC2)N2CCOCC2)cc1`, the inhibition was inactive: -2.87%.

For the compound `O=[N+]([O-])c1cc(Oc2ccc([N+](=O)[O-])cc2C(F)(F)F)cc([N+](=O)[O-])c1`, the inhibition was inactive: -4.06%.

On to `Cc1ccc2nc3c(c(C)c2c1)CC(C(Cl)Cl)S3` (stereo not drawn), for which the inhibition was inactive: -2.37%.

On to `Cc1ccc(OP(=O)(Nc2ccc([N+](=O)[O-])cn2)Oc2ccc(C)cc2)cc1`, for which the inhibition was inactive: -0.218%.

In the case of `[N-]=[N+]=NC1CCCCC1NC(=O)c1cc([N+](=O)[O-])cc([N+](=O)[O-])c1` (stereo not drawn), the inhibition is inactive: -0.567%.

`O=[As](O)(c1ccc(O)cc1)c1ccccc1O`: the inhibition was inactive: 7.89%.

As to `C[As](=O)(O)c1cccc(C(=O)O)c1`, the inhibition is inactive: 2.32%.

As for `COc1cc(C(=O)NCC2(N3CCOCC3)CCCCC2)ccc1OCC(C)C`, the inhibition is inactive: -0.288%.

Consider `O=[N+]([O-])c1ccc(-c2cc([N+](=O)[O-])c(O)c([N+](=O)[O-])c2)cc1`, for which the inhibition is inactive: 1.66%.

Consider `O=C(OC1CN2CCC1CC2)c1cccc2[nH]cnc12` (stereo not drawn), for which the inhibition was inactive: 0.987%.

With `CC(C)NC(=O)NP(=O)(Oc1ccccc1)Oc1ccccc1`, the inhibition is inactive: 3.69%.

Consider `CC(C)c1ccc(OP(=O)(Nc2ccccn2)Oc2ccccc2F)cc1` (stereo not drawn), for which the inhibition is inactive: 5.65%.

As to `COC(=O)C1(C)COP(=O)(N2CCCCCC2)OC1` (stereo not drawn), the inhibition was inactive: -3.5%.

As for `O=C(O)COc1ccc([As](=O)(O)O)cc1[N+](=O)[O-]`, the inhibition is inactive: -1.7%.

For `CCOP1(=S)c2c(C)nn(CCC#N)c2N=C(c2ccccc2F)N1C` (stereo not drawn), the inhibition is inactive: 12%.

Turning to `O=P(Nc1nccs1)(Oc1ccccc1)Oc1ccccc1`, the inhibition was inactive: 1.22%.

As for `CN(C)C(=O)c1cc([N+](=O)[O-])cc2c1-c1c(cc([N+](=O)[O-])cc1[N+](=O)[O-])C2=O`, the inhibition is inactive: -5.78%.

For the compound `CN(C(=O)Cc1ccc(Cl)c(Cl)c1)[C@H]1CC[C@@]2(CCCO2)C[C@@H]1N1CCCC1`, the inhibition was inactive: -5.24%.

As to `N#CCCN(C(=O)COC(=O)C(O)(c1ccccc1)c1ccccc1)c1ccc(F)cc1`, the inhibition is inactive: 0.461%.

In the case of `CN(C(=O)Cc1ccccc1)[C@@H]1CC[C@]2(CCCO2)C[C@H]1N1CCCC1`, the inhibition was inactive: -0.143%.

Take `CCOP1(=S)c2c(C)nn(CCC#N)c2N=C(c2ccc(F)cc2)N1C` (stereo not drawn): the inhibition is inactive: -0.712%.

In the case of `NC(=O)Nc1ccc([As](=O)(O)O)cc1`, the inhibition is inactive: 5.82%.

For the compound `COc1cc(C(=O)NCC2(N3CCOCC3)CCCCC2)cc(Cl)c1OC(C)C`, the inhibition is inactive: 3.44%.

On to `CS(=O)(=O)c1ccc(Cl)c(NC(=O)COC(=O)C(O)(c2ccccc2)c2ccccc2)c1`, for which the inhibition is inactive: -1.82%.

Take `O=C(OC1CN2CCC1CC2)c1ccc(Cl)cc1` (stereo not drawn): the inhibition was inactive: -4.31%.

With `CCOP(=O)(Nc1cccc2ccccc12)OCC`, the inhibition was inactive: 8.88%.

Turning to `CCCOP(=S)(Nc1nc(N)cc(=O)[nH]1)OCCC`, the inhibition was inactive: -3.88%.

Turning to `Cc1ccc(NCCc2c([N+](=O)[O-])cc([N+](=O)[O-])cc2[N+](=O)[O-])cc1`, the inhibition was inactive: -1.66%.

On to `Nc1cccc2c([As](=O)(O)O)cccc12`, for which the inhibition is inactive: 2.78%.

Regarding `O=P1(N(CCCl)CCCl)NCCC(C(F)(F)F)O1` (stereo not drawn), the inhibition is inactive: -3.28%.

On to `CC(C)(C)C(=O)NC(Sc1ncccn1)C(Cl)(Cl)Cl` (stereo not drawn), for which the inhibition is inactive: 0.462%.

Consider `CN(CCCl)Cc1cc(Cl)c(NC2=NCCN2)c(Cl)c1`, for which the inhibition was inactive: 1.23%.

In the case of `CCOP(=O)(Nc1ccc(C)cn1)OCC`, the inhibition was inactive: 1.69%.

On to `CCC1=CC2Cc3nc4ccc(Cl)cc4c(N)c3C(C1)C2` (stereo not drawn), for which the inhibition was inactive: 0.086%.

On to `CCOP(=O)(NC(=NC(C)c1ccccc1)NC(C)c1ccccc1)OCC` (stereo not drawn), for which the inhibition was inactive: 1.97%.

Turning to `CN(C(=O)Cc1ccc(Cl)c(Cl)c1)[C@@H]1CCCC[C@H]1N1CCCC1`, the inhibition is inactive: -1.53%.

For the compound `CC(C)/C=N\N=C(\N)N[N+](=O)[O-]`, the inhibition was inactive: 1.74%.

`CN(C(=O)Cc1ccc(Cl)c(Cl)c1)C1CCCC[C@@H]1N1CCCC1` (stereo partly drawn): the inhibition is inactive: -4.66%.

Turning to `COc1ccccc1CNC(=O)COC(=O)C(O)(c1ccccc1)c1ccccc1`, the inhibition was inactive: 4.07%.

For `O=C(/C=C/c1ccccc1)OC1CN2CCC1CC2` (stereo not drawn), the inhibition was inactive: 1.13%.

As to `CCCC1OP(=O)(Nc2ccccc2)OCC1CC` (stereo not drawn), the inhibition is inactive: -2.43%.

Turning to `CN(C)C1(CNC(=O)c2ccc(S(C)(=O)=O)cc2)CCCCC1`, the inhibition is inactive: 1.9%.

Turning to `Cc1ccc(C(=O)OC2CN3CCC2CC3)cc1` (stereo not drawn), the inhibition was inactive: -1.25%.

Turning to `CC1CCC(C(C)C)C(OP(=O)(Nc2ccccn2)c2ccccc2)C1` (stereo not drawn), the inhibition was inactive: -2.08%.

As for `NS(=O)(=O)c1cccc(NC(=O)COC(=O)C(O)(c2ccccc2)c2ccccc2)c1`, the inhibition is inactive: 2.14%.

`O=[As](O)(c1cccs1)c1cccs1`: the inhibition was inactive: -0.614%.

Regarding `Nc1cccc([As](=O)(O)c2ccccc2)c1`, the inhibition was inactive: 2.02%.

On to `Cc1ccc(S(=O)(=O)N(CCCN)CCCc2c(C)nc(N)[nH]c2=O)cc1`, for which the inhibition is inactive: 7.57%.

Consider `O=P(Nc1nc2ccccc2s1)(c1ccccc1)c1ccccc1`, for which the inhibition was inactive: 1.56%.

As to `C[C@H]1OP(=O)(Oc2ccccc2)[C@H](O)[C@H](O)[C@H]1N=[N+]=[N-]` (stereo partly drawn), the inhibition was inactive: 0.225%.

Turning to `Nc1ccc(CCCCOc2ccccc2)cc1`, the inhibition is inactive: 16.6%.

Consider `COc1ccc(N)c([N+](=O)[O-])c1[N+](=O)[O-]`, for which the inhibition was inactive: -0.48%.

Take `CN(C)C1(CNC(=O)c2ccc(Cl)c(S(N)(=O)=O)c2)CCCCC1`: the inhibition was inactive: -4.03%.

Take `O=P(Nc1ccccn1)(c1ccc(Br)cc1)c1ccc(Br)cc1`: the inhibition was inactive: 4.73%.

Consider `C/C(N)=N\P(=O)(OCc1ccccc1)OCc1ccccc1`, for which the inhibition is inactive: -0.749%.

For the compound `Nc1ccc([As](=O)(O)c2ccc([N+](=O)[O-])cc2)cc1`, the inhibition was inactive: -4.03%.

Regarding `C(Cc1nn[nH]n1)Cc1nn[nH]n1`, the inhibition was inactive: -4.09%.

`CC(=O)NC(SC(=S)N(C)C)C(Cl)(Cl)Cl` (stereo not drawn): the inhibition was inactive: 1.65%.

`CCc1cc(O)c([N+](=O)[O-])c(C)c1[N+](=O)[O-]`: the inhibition was inactive: -3.18%.

Turning to `CC(C)(C)C(=O)NC(Sc1ccccc1)C(Cl)(Cl)Cl` (stereo not drawn), the inhibition was inactive: 1.28%.

With `CCOc1ccc(C2=NCC(CBr)S2)cc1` (stereo not drawn), the inhibition was inactive: -2.15%.

In the case of `CC(=O)Nc1ccc([As](=O)(O)O)c(O)c1`, the inhibition was inactive: -4.65%.

On to `N#C/C(=C\c1ccc(N(CCBr)CCBr)cc1)C(N)=O`, for which the inhibition was inactive: 4.45%.

For `CC(=O)c1ccc(N2CC2c2ccncc2)cc1` (stereo not drawn), the inhibition was inactive: -0.86%.

Take `COC(=O)C1(C)COP(=O)(NCc2ccccc2)OC1` (stereo not drawn): the inhibition is inactive: -1.25%.

Consider `Cc1ccccc1CN(C)C(=O)COC(=O)C(O)(c1ccccc1)c1ccccc1`, for which the inhibition was inactive: 1.84%.

Take `C[C@@H]1C=CCP(=O)(Oc2ccccc2)O1` (stereo partly drawn): the inhibition was inactive: -1.51%.

Regarding `C[C@H]1OP(=O)(Oc2ccccc2)C[C@@H]2O[C@@H]21` (stereo partly drawn), the inhibition is inactive: -1.76%.

For `O=P1(N(CCCl)CCCl)OCCC2CCCCN21` (stereo not drawn), the inhibition was inactive: -1.49%.

For `O=C(NC1CCS(=O)(=O)C1)NP(=S)(Oc1ccccc1)Oc1ccccc1` (stereo not drawn), the inhibition was inactive: -2.01%.

`CCNC(=S)/N=C(\N)N[N+](=O)[O-]`: the inhibition was inactive: -3.44%.

In the case of `c1ccc(-c2nn[nH]n2)c(-c2nn[nH]n2)c1`, the inhibition was inactive: -3.44%.

For `Cc1ccc(NP(=O)(Oc2cccc(C)c2)Oc2cccc(C)c2)nc1`, the inhibition is inactive: -1.29%.

`CC(NC(=O)COC(=O)C(O)(c1ccccc1)c1ccccc1)c1ccccc1` (stereo not drawn): the inhibition was inactive: 1.65%.

`O=c1c2cc([N+](=O)[O-])ccc2[nH]c2c([N+](=O)[O-])cc([N+](=O)[O-])cc12`: the inhibition was inactive: 3.9%.

Regarding `Cc1ccc(OP(=O)(Nc2ccccn2)Oc2ccc(C)cc2)cc1`, the inhibition is inactive: 14.1%.

`O=C(OC1CN2CCC1CC2)c1ccccc1` (stereo not drawn): the inhibition is inactive: -1.39%.
